Results from patent US5264372A (Amylin Pharmaceuticals, Inc., priority 1991, dated 1993).

Sequences of proteins named here, by UniProt entry; tags and fusion partners are left off. Residues count along the entry.
UniProt Q63118, 24-464: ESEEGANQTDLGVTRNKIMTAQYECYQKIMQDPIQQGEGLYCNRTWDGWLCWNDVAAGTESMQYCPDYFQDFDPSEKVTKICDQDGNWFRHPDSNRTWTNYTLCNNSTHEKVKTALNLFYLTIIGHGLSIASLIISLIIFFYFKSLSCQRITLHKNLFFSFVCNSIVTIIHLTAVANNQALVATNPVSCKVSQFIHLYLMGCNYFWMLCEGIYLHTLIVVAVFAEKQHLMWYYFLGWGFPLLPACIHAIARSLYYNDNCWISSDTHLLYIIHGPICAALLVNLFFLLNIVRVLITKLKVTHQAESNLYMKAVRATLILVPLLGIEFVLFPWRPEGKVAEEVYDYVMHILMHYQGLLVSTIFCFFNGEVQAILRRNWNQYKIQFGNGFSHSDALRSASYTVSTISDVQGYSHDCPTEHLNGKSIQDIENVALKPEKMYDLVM
UniProt Q9JJ74, 27-148: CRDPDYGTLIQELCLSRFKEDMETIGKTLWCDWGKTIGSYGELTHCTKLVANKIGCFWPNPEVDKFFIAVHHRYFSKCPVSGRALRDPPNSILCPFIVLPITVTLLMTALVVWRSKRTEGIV

Legend:
[1] = biological target: ^125 I-h CGRP binding sites in nucleus accumbens and surrounding regions; experiment: Competition for 125I-h CGRP binding to nucleus accumbens area (basal forebrain) membranes; parameters: species or system rat; settings: ^125 I-h CGRP tracer, r amylin 2 site fit
[2] = biological target: ^125 I-CGRP binding sites in membranes from rat cerebellum (Rattus norvegicus, UniProt Q63118+Q9JJ74)
[3] = biological target: T1, ^125 I-h CGRP binding site (CGRP receptor) in rat liver membranes (Rattus norvegicus, UniProt Q63118+Q9JJ74); experiment: 125I-h CGRP binding to rat liver membranes (saturation and competition); settings: competition against ^125 I-h CGRP
T1 construct: from tissue; host or cells: rat liver membranes

CC(C)C[C@H](NC(=O)CNC(=O)[C@H](C)NC(=O)[C@H](CC(C)C)NC(=O)[C@H](CCCNC(=N)N)NC(=O)[C@H](Cc1c[nH]cn1)NC(=O)[C@@H](NC(=O)[C@@H](NC(=O)[C@@H]1CSSC[C@H](NC(=O)[C@H](C)N)C(=O)N[C@@H](CC(=O)O)C(=O)N[C@@H]([C@@H](C)O)C(=O)N[C@@H](C)C(=O)N[C@@H]([C@@H](C)O)C(=O)N1)C(C)C)[C@@H](C)O)C(=O)N[C@@H](CC(C)C)C(=O)N[C@@H](CO)C(=O)N[C@@H](CCCNC(=N)N)C(=O)N[C@@H](CO)C(=O)NCC(=O)NCC(=O)N[C@H](C(=O)N[C@H](C(=O)N[C@@H](CCCCN)C(=O)N[C@@H](CC(N)=O)C(=O)N[C@@H](CC(N)=O)C(=O)N[C@@H](Cc1ccccc1)C(=O)N[C@H](C(=O)N1CCC[C@H]1C(=O)N[C@H](C(=O)N[C@@H](CC(N)=O)C(=O)N[C@H](C(=O)NCC(=O)N[C@@H](CO)C(=O)N[C@@H](CCCCN)C(=O)N[C@@H](C)C(=O)N[C@@H](Cc1ccccc1)C(N)=O)C(C)C)[C@@H](C)O)C(C)C)C(C)C)C(C)C [h CGRP, human α-CGRP]
IC50 [1]: 0.03 nM
Hill Slope [2]: -1.21
Hill Slope [3]: -1.14
